Assay: Stability studies on storage (NMR / mass spectrometry)
[1] = two weeks storage at −20° C., spectroscopic methods / HR-MS
[2] = 2 months storage at −20° C., NMR and/or mass spectrometry

For “bis(2-cyanoethyl diisopropylphosphoramidite)”, the storage stability [1] was “remained stable”.
For “diisopropylphosphoramidochloridite-O-2-cyanoethyl diisopropylphosphoramidite”, the storage stability [2] was “remained stable”.
For “O—[(O,O-bis(2-cyanoethyl)phosphoryl]-O-[2-cyanoethyl phosphorochloridite]diisopropylaminophosphoramidite”, the storage stability [2] was “remained stable” and the storage stability (10 days at room temperature in DMSO solution) was “remained stable”.
With “2-cyanoethyl phosphoryl-O,O-bis(2-cyanoethyl diisopropylphosphoramidite)” the storage stability [1] was “remained stable”.

Reference: patent US8193384B2, “Polymer-bound phosphitylating reagents for the synthesis of organophosphorus compounds” (priority 2005, dated 2012)
